Assay results reported in article PMC10526228.

Tests used:
Assay in all cases: SPR; cytokine immobilised by amine coupling on a ProteOn GLH chip (ProteOn XPR36); S100A6 as analyte, 63 nM–8 µM, 300 s; 25 °C; 10 mM HEPES, 150 mM NaCl, 1 mM CaCl2, 0.05% Tween 20, pH 7.4; heterogeneous ligand model (single-site scheme for IL-2)
[1] = target: granulocyte colony-stimulating factor (human) (UniProt P09919)
[2] = target: granulocyte–macrophage colony-stimulating factor (human) (UniProt P04141)
[3] = target: growth hormone variant (human) (UniProt P01242)
[4] = target: interferon-ω1 (human) (UniProt P05000)
[5] = target: interleukin-10 (human) (UniProt P22301)
[6] = target: interleukin-22 (human) (UniProt Q9GZX6)
[7] = target: interleukin-26 (human) (UniProt Q9NPH9)
[8] = target: interleukin-3 (human) (UniProt P08700)
[9] = target: interleukin-31 (human) (UniProt Q6EBC2)
[10] = target: interleukin-35 (human)
[11] = target: thrombopoietin (human) (UniProt P40225)

Substance: S100A6 protein (from UniProt P06703 1-90) (natural protein)
- Kd1 (KD, ligand population 1) [1]: 3.91 nM
- Kd2 (KD, ligand population 2) [1]: 1680 nM
- kd1 (koff, ligand population 1) [1]: 0.000772 s⁻¹
- kd2 (koff, ligand population 2) [1]: 0.0104 s⁻¹
- Kd1 (KD, ligand population 1) [2]: 2260 nM
- Kd2 (KD, ligand population 2) [2]: 3630 nM
- kd1 (koff, ligand population 1) [2]: 0.000792 s⁻¹
- kd2 (koff, ligand population 2) [2]: 0.0176 s⁻¹
- Kd1 (KD, ligand population 1) [3]: 46.2 nM
- Kd2 (KD, ligand population 2) [3]: 1780 nM
- kd1 (koff, ligand population 1) [3]: 7.92e-05 s⁻¹
- kd2 (koff, ligand population 2) [3]: 0.00306 s⁻¹
- Kd1 (KD, ligand population 1) [4]: 228 nM
- Kd2 (KD, ligand population 2) [4]: 1110 nM
- kd1 (koff, ligand population 1) [4]: 0.000471 s⁻¹
- kd2 (koff, ligand population 2) [4]: 0.0129 s⁻¹
- Kd1 (KD, ligand population 1) [5]: 361 nM
- Kd2 (KD, ligand population 2) [5]: 2130 nM
- kd1 (koff, ligand population 1) [5]: 0.000398 s⁻¹
- kd2 (koff, ligand population 2) [5]: 0.015 s⁻¹
- Kd1 (KD, ligand population 1) [6]: 593 nM
- Kd2 (KD, ligand population 2) [6]: 1310 nM
- kd1 (koff, ligand population 1) [6]: 0.00357 s⁻¹
- kd2 (koff, ligand population 2) [6]: 0.0326 s⁻¹
- Kd1 (KD, ligand population 1) [7]: 278 nM
- Kd2 (KD, ligand population 2) [7]: 600 nM
- kd1 (koff, ligand population 1) [7]: 0.000598 s⁻¹
- kd2 (koff, ligand population 2) [7]: 0.00256 s⁻¹
- Kd2 (KD, ligand population 2) [8]: 402 nM
- kd1 (koff, ligand population 1) [8]: 0.000271 s⁻¹
- kd2 (koff, ligand population 2) [8]: 0.00728 s⁻¹
- Kd1 (KD, ligand population 1) [9]: 106 nM
- Kd2 (KD, ligand population 2) [9]: 256 nM
- kd1 (koff, ligand population 1) [9]: 0.000464 s⁻¹
- kd2 (koff, ligand population 2) [9]: 0.0111 s⁻¹
- Kd1 (KD, ligand population 1) [10]: 2340 nM
- Kd2 (KD, ligand population 2) [10]: 4650 nM
- kd1 (koff, ligand population 1) [10]: 0.00259 s⁻¹
- kd2 (koff, ligand population 2) [10]: 0.0391 s⁻¹
- Kd1 (KD, ligand population 1) [11]: 0.289 nM
- Kd2 (KD, ligand population 2) [11]: 3.96 nM
- kd1 (koff, ligand population 1) [11]: 6e-05 s⁻¹
- kd2 (koff, ligand population 2) [11]: 0.00447 s⁻¹
